Source: patent publication US20210405025A1, “IDENTIFYING COMPOUNDS FOR TREATING CANCER AND USE THEREOF” (THE UAB RESEARCH FOUNDATION, priority 2018, published 2021)

System: relapsed AML cells
Test: Drug sensitivity assay, 1,536-well, 3-day culture with individual approved drugs at 10 μM, viability by alamarBlue

SMILES | #Cases >70% cell death
C[C@@H]1C[C@H]2[C@@H]3C[C@H](F)C4=CC(=O)C=C[C@]4(C)[C@@]3(F)[C@@H](O)C[C@]2(C)[C@@]1(O)C(=O)CO [FLUMETHASONE] | 2
C[C@@H](O)[C@H]1C(=O)N2C(C(=O)OCOC(=O)C(C)(C)C)=C(SC3CN(C4=NCCS4)C3)[C@H](C)[C@H]12 [TEBIPENEM PIVOXIL] | 1
